Patent US20070123592A1, “Terephthalamide peptidomimetic compounds and methods” (YALE UNIVERSITY, priority 2004, published 2007)

Sequences of proteins named here, by UniProt entry; tags and fusion partners are left off.
UniProt Q07817, whole entry: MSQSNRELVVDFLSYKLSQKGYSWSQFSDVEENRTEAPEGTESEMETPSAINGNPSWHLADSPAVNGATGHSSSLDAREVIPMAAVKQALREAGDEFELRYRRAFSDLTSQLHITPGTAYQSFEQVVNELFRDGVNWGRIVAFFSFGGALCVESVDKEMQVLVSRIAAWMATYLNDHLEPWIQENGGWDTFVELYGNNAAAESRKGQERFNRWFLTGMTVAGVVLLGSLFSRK

Target: Bcl-xL/Bak complex (Homo sapiens, UniProt Q07817)
Assay: Fluorescence polarization competition assay (displacement of fluorescein-labeled Bak peptide from Bcl-xL)
Assay type: binding
Conditions: for K1 ± S.D.: 15 nM Fl-Bak, 184 nM Bcl-xL, 10 mM PBS pH 7.4, 25° C., mean of three independent experiments; for affinity / activity in disrupting the Bcl-xL/Bak interaction (in words): summary of Table 1

| SMILES | K1 ± S.D. | affinity / activity in disrupting the Bcl-xL/Bak interaction (in words) |
| --- | --- | --- |
| COC(=O)CNC(=O)c1ccc(C(=O)N(C)C)cc1 | No affinity | weak binding |
| CC(C)C[C@H](NC(=O)c1ccc(C(=O)N[C@@H](CC(C)C)C(=O)O)c(Oc2ccccc2)c1)C(=O)O | No affinity |  |
| COC(=O)[C@H](CC(C)C)NC(=O)c1ccc(C(=O)N(C)C)cc1OC(C)C |  | low micro-molar Ki values |
| COC(=O)[C@H](CC(C)C)NC(=O)c1ccc(C(=O)N(C(C)C)C(C)C)cc1Oc1ccccc1 | Not soluble |  |
